Converted amounts (≈) assume the structure as drawn.

By UniProt entry, the sequences of proteins in these tests, tags left out. Residues count along the entry.
UniProt P35968, 790-1356 limits assumed: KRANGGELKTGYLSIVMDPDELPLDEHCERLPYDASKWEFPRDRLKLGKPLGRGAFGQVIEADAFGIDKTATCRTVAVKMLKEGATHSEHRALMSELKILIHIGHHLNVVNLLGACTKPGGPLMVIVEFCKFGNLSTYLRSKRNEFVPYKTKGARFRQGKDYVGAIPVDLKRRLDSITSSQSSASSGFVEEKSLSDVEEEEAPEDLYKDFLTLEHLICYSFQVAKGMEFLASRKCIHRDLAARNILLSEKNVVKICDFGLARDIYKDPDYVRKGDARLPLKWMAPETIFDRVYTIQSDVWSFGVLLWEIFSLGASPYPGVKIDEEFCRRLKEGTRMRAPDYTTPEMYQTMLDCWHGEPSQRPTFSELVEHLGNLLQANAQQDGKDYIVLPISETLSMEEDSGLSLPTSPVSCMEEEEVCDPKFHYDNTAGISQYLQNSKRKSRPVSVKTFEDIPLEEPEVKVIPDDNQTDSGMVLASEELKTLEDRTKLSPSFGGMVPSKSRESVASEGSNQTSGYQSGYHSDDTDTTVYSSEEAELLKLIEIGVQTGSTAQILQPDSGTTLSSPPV
UniProt P35968, 20-1356 limits assumed: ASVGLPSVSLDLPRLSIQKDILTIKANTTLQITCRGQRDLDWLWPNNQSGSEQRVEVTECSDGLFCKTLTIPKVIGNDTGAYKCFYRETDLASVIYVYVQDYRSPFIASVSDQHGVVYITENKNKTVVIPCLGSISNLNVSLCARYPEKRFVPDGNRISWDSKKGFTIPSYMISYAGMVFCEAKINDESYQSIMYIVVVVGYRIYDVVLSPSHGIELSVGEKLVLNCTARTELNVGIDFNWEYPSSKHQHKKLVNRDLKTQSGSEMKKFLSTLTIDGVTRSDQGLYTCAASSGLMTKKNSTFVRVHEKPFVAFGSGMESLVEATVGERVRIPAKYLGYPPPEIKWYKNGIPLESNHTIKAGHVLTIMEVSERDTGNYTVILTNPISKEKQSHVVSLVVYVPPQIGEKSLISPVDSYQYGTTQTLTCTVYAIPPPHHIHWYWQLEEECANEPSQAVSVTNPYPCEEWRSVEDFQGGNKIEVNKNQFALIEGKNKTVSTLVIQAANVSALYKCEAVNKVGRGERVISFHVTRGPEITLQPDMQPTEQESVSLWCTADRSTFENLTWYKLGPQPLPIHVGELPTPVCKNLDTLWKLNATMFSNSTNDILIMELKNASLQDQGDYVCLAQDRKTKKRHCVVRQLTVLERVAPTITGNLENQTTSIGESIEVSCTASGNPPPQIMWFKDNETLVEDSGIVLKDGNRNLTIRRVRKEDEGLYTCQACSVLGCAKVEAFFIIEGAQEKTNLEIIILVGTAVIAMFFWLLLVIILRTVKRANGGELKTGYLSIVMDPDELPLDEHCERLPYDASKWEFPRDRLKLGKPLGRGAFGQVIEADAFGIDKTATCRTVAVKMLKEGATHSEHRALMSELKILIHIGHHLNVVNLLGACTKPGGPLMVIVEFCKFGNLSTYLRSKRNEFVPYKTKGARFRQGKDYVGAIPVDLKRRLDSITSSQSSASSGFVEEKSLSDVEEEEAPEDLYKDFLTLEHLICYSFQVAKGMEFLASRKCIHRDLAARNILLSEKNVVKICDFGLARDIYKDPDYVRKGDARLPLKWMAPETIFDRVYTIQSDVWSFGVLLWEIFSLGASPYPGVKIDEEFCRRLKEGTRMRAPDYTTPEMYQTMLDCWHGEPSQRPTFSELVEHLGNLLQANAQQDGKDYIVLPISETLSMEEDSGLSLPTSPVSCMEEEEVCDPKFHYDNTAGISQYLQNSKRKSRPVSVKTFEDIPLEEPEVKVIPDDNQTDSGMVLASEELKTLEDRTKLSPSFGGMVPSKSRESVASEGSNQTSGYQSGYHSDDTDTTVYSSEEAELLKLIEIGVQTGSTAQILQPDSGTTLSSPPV
UniProt P00533, 25-1210 limits assumed: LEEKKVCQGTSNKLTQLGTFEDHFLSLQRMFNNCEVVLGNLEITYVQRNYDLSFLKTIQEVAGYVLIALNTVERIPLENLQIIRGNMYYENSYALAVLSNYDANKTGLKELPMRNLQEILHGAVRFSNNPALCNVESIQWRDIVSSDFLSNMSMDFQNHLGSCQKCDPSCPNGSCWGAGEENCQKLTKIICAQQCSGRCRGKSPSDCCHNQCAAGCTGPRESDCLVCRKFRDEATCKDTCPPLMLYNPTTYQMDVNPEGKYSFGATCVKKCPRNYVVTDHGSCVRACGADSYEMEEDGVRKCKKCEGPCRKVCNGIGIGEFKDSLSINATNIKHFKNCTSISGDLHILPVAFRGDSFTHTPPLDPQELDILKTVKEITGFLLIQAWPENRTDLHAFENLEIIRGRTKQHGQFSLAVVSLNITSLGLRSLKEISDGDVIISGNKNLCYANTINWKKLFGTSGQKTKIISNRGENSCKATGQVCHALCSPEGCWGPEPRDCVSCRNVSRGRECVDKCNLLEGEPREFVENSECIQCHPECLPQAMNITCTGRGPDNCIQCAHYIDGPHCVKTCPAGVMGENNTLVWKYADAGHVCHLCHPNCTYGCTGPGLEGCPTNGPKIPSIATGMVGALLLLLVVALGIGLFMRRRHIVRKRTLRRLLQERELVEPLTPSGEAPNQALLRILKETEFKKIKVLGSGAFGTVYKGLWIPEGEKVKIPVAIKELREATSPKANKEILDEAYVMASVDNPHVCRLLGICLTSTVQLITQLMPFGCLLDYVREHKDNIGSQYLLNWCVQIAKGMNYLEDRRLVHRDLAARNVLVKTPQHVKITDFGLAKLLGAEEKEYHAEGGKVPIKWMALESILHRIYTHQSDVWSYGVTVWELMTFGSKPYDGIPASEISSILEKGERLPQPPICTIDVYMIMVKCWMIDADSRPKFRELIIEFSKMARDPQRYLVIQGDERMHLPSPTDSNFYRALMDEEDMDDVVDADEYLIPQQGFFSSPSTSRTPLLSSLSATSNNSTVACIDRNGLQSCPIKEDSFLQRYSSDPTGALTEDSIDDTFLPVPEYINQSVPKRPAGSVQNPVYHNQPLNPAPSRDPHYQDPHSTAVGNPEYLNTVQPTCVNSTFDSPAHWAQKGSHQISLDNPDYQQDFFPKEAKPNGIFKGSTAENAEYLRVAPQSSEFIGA
UniProt P35916, 25-1363 limits assumed: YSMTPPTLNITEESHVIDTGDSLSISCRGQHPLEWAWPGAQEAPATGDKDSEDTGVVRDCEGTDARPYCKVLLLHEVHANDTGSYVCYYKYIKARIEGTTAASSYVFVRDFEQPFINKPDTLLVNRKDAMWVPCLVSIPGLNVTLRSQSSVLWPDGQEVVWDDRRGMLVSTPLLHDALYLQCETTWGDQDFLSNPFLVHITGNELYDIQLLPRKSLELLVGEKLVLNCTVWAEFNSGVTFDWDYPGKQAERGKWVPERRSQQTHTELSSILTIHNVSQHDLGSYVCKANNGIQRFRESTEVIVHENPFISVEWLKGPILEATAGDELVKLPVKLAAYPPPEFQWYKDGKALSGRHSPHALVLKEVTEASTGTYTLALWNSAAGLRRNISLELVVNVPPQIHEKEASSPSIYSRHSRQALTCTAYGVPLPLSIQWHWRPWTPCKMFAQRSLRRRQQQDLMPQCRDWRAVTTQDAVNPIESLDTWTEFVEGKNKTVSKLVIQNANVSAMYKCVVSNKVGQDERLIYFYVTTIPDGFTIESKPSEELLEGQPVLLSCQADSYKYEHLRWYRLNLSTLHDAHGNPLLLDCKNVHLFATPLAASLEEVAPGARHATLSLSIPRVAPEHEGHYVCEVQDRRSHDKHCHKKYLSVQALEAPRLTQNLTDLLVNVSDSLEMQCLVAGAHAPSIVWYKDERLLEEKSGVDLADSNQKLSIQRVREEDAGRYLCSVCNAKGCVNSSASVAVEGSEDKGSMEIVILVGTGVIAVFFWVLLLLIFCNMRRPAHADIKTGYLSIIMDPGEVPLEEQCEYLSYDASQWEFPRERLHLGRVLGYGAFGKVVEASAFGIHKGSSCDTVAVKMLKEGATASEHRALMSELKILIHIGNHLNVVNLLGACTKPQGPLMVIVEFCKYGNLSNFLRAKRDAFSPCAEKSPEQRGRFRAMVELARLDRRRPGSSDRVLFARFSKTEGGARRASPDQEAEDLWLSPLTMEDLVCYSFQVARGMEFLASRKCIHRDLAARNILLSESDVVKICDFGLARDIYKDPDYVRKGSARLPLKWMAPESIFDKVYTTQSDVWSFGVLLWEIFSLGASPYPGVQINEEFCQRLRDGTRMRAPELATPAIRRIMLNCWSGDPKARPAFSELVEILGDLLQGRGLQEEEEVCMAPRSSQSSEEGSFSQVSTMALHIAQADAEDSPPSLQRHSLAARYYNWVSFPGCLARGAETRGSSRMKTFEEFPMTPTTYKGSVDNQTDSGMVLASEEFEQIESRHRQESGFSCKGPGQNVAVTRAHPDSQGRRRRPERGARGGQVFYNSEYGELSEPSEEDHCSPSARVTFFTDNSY
UniProt P17948, 27-1338 limits assumed: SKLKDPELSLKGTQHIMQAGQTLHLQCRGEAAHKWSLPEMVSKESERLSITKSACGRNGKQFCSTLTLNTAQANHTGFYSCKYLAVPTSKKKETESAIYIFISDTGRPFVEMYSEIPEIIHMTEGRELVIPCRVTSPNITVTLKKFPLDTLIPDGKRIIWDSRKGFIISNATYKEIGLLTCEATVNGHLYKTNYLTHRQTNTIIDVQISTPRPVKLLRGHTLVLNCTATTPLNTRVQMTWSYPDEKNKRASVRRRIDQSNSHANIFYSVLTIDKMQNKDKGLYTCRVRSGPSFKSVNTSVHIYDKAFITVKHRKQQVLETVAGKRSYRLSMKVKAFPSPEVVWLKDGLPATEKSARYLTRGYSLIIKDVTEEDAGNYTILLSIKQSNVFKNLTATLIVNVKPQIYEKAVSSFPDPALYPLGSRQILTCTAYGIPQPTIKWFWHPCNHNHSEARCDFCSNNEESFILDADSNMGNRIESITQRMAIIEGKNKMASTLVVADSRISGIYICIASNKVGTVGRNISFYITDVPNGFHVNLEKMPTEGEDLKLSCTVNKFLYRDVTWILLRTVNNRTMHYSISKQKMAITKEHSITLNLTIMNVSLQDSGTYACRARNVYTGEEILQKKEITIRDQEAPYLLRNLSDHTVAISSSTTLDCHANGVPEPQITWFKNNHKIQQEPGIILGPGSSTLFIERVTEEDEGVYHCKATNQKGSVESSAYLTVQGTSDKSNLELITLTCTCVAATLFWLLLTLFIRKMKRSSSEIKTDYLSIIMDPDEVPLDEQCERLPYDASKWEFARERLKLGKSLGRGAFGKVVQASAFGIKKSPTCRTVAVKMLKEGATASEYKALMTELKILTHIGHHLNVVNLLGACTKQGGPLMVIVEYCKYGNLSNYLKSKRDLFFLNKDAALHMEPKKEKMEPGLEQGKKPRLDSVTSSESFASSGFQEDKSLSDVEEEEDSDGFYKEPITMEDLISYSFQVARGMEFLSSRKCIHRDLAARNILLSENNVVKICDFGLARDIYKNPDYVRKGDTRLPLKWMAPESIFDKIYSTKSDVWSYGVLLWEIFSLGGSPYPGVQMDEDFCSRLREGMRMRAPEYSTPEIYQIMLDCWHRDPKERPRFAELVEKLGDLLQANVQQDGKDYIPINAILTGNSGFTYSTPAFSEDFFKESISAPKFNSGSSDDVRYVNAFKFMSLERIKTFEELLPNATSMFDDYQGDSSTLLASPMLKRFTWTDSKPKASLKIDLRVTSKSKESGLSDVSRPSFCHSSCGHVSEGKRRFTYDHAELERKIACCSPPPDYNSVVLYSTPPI

The nature of data set [1]: Binding capacity of compounds to melanin. The following applies: 1 mg/mL melanin suspension in PBS pH 7.4, 2 μM compound, 2 h at 37° C.
A further data set addresses KDR (VEGFR2) (Homo sapiens (Human), UniProt P35968). Kind of data set: Kinase inhibition, Mobility Shift Assay (VEGFR2). The following applies: read-out: IC50 (nM) for VEGFR2.
The next data set has as its target EGFR (Homo sapiens (Human), UniProt P00533). Kind of data set: Kinase inhibition, Mobility Shift Assay (EGFR). The following applies: read-out: IC50 (nM) for EGFR.
In data set [2] the target is VEGFR2 autophosphorylation (pVEGFR2) in HUVEC cells (Homo sapiens (Human), UniProt P35968). Kind of data set: Inhibition of VEGF-induced VEGFR2 autophosphorylation in HUVEC cells (ELISA). The following applies: read-out: IC50 (nM) for pVEGFR2, 50 ng/ml human VEGF, compound 1 h.
Data set [3] in a line: Thermodynamic solubility assay. In kind it is physicochemical. The following applies: room temperature, shaking 8 h, buffers pH 2.0, 6.5, 7.4 in method, pH of the tabulated value not given.
The target in another data set is FLT4 (VEGFR3) (Homo sapiens (Human), UniProt P35916). Kind of data set: Kinase inhibition, Mobility Shift Assay (VEGFR3). The following applies: read-out: IC50 (nM) for VEGFR3.
A further data set has as its target FLT1 (VEGFR1) (Homo sapiens (Human), UniProt P17948). Kind of data set: Kinase inhibition, Mobility Shift Assay (VEGFR1). The following applies: read-out: IC50 (nM) for VEGFR1.

For `CCNC(=O)c1cc(F)ccc1Sc1ccc2c(/C=C/c3ccc(CN(CC)CC)cn3)n[nH]c2c1`, in data set [1], the “Fu % (percentage of free drug, not bound to melanin)” value is on record as “C (C indicates above 5%)”. The IC50 at KDR (VEGFR2) was 1 to 10 nM; on EGFR it was 6000 to 60000 nM; in data set [2], below 1 nM. For the same molecule, the “Solubility” value in data set [3] came to 546.0 µg/mL (≈ 1080 µM).

As to `CCN(CC)Cc1ccc(/C=C/c2n[nH]c3cc(Sc4c(F)cccc4C(=O)NC4CC4)ccc23)nc1`, the IC50 at KDR (VEGFR2) fell in the range of 1 to 10 nM; at EGFR, 6000 to 60000 nM.

In the case of `CCN(CC)CCc1ccc(/C=C/c2n[nH]c3cc(Sc4ccccc4C(=O)NC4CC4)ccc23)nc1`, in data set [1], the “Fu % (percentage of free drug, not bound to melanin)” value was “B (B indicates from 1% to 5%)”. Further, the IC50 on KDR (VEGFR2) was below 1 nM; on EGFR it was 6000 to 60000 nM; in data set [2], below 1 nM.

Turning to `CNC(=O)c1ccccc1Sc1ccc2c(cnn2-c2ccc(OCCN3CCCC3)cn2)c1`, the IC50 was above 100 nM at KDR (VEGFR2), above 100 nM at FLT4 (VEGFR3), above 100 nM on FLT1 (VEGFR1) and above 60000 nM on EGFR.

In the case of `CCNC(=O)c1ccccc1Sc1ccc2c(/C=C/c3cnn(CCCN4CCCC4)c3)n[nH]c2c1`, the results for the IC50 on KDR (VEGFR2) and at EGFR were below 1 nM and 6000 to 60000 nM, respectively.

On to `O=C(O)c1ccccc1Sc1ccn2c(/C=C/c3ccccn3)ncc2c1`, for which, in data set [1], the “Fu % (percentage of free drug, not bound to melanin)” value is “C (C indicates above 5%)”. In addition, the IC50 on KDR (VEGFR2) was above 100 nM; on FLT4 (VEGFR3), above 100 nM; at FLT1 (VEGFR1), above 100 nM; at EGFR, below 600 nM.

Source of the values: US20260049071A1, “PROTEIN TYROSINE KINASE INHIBITOR AND MEDICAL USE THEREOF” (BEYANG THERAPEUTICS CO., LTD., priority 2022, published 2026).
